# CycPeptMPDB entries from one study

Values of Townsend et al. 2020, doi:10.26434/chemrxiv.13335941.v1, as listed in CycPeptMPDB.

PAMPA is the parallel artificial membrane permeability assay, which has no cells and reads passive diffusion.
P is given in units of 10^-6 cm/s (from log10 values with two decimals); larger means faster passage.

SMILES,PAMPA (10^-6 cm/s)
CC(C)C[C@@H]1NC(=O)[C@H](CC(C)C)N(C)C(=O)[C@@H](C)N(C)C(=O)[C@@H]2CCCN2C(=O)[C@H](Cc2ccccc2)NC(=O)CN(Cc2ccccc2)C(=O)[C@@H]2CCCN2C1=O,2.2
CCCN1CC(=O)N(C)[C@@H](CC(C)C)C(=O)N[C@H](CC(C)C)C(=O)N2CCC[C@@H]2C(=O)N(C)[C@@H](CC(C)C)C(=O)N[C@@H](Cc2ccccc2)C1=O,15
CC(C)C[C@@H]1NC(=O)[C@@H](CC(C)C)N(C)C(=O)[C@@H](C)NC(=O)[C@H]2CCCN2C(=O)[C@H](Cc2ccccc2)NC(=O)[C@@H](CC(C)C)N(C)C(=O)[C@@H]2CCCN2C1=O,6.6
CC(C)C[C@@H]1C(=O)N[C@H](CC(C)C)C(=O)N2CCC[C@@H]2C(=O)N(C)[C@@H](CC(C)C)C(=O)N[C@@H](Cc2ccccc2)C(=O)N2CCC[C@H]2C(=O)N[C@@H](C)C(=O)N1C,4.3
CC(C)C[C@@H]1NC(=O)[C@@H]2CCCN2C(=O)CN(Cc2ccccc2)C(=O)[C@@H](CC(C)C)N(C)C(=O)C[C@H](Cc2ccccc2)NC(=O)[C@H]2CCCN2C(=O)[C@H](Cc2ccccc2)NC1=O,1.6
CC(C)C[C@@H]1NC(=O)[C@@H](C)N(C)C(=O)[C@H](Cc2ccccc2)NC(=O)[C@H](CC(C)C)N(C)C(=O)[C@H]2CCCN2C(=O)CN(Cc2ccccc2)C1=O,7.2
CC(C)C[C@@H]1NC(=O)[C@@H](CC(C)C)N(C)C(=O)C[C@H](Cc2ccccc2)NC(=O)[C@@H]2CCCN2C(=O)[C@H](Cc2ccccc2)NC(=O)[C@@H](CC(C)C)N(C)C(=O)[C@H]2CCCN2C1=O,1.8
CCCN1CC(=O)N(C)[C@@H](CC(C)C)C(=O)N(C)[C@H](CC(C)C)C(=O)N2CCC[C@H]2C(=O)N(C)[C@@H](CC(C)C)C(=O)N[C@@H](Cc2ccccc2)C1=O,15
CC(C)C[C@@H]1NC(=O)[C@@H](CC(C)C)N(C)C(=O)[C@@H](C)NC(=O)[C@@H]2CCCN2C(=O)[C@H](Cc2ccccc2)NC(=O)[C@H](CC(C)C)N(C)C(=O)[C@@H]2CCCN2C1=O,2.3
CC(C)C[C@H]1NC(=O)C[C@H](Cc2ccccc2)NC(=O)[C@@H]2CCCN2C(=O)[C@H](Cc2ccccc2)NC(=O)[C@H](CC(C)C)N(C)C(=O)[C@H]2CCCN2C(=O)C[C@H](Cc2ccccc2)NC1=O,1.9
CC(C)C[C@H]1NC(=O)[C@@H](C)N(C)C(=O)[C@H]2CCCN2C(=O)[C@H](Cc2ccccc2)NC(=O)[C@H](CC(C)C)N(C)C(=O)[C@@H]2CCCN2C(=O)[C@H](CC(C)C)N(C)C1=O,7.2
CC(C)C[C@@H]1NC(=O)[C@H](CC(C)C)N(C)C(=O)[C@H](C)NC(=O)[C@H](Cc2ccccc2)NC(=O)CN(Cc2ccccc2)C(=O)[C@@H]2CCCN2C1=O,2.3
CC(C)C[C@@H]1NC(=O)[C@@H](C)N(C)C(=O)[C@H](Cc2ccccc2)NC(=O)CN(Cc2ccccc2)C(=O)[C@H]2CCCN2C(=O)[C@@H](CC(C)C)NC1=O,2
CCCN1CC(=O)N[C@@H](CC(C)C)C(=O)N[C@@H](CC(C)C)C(=O)N2CCC[C@@H]2C(=O)N(Cc2ccccc2)CC(=O)N[C@@H](Cc2ccccc2)C1=O,4.1
CC(C)C[C@@H]1C(=O)N[C@H](CC(C)C)C(=O)N2CCC[C@H]2C(=O)N(C)[C@H](CC(C)C)C(=O)N[C@@H](Cc2ccccc2)C(=O)N2CCC[C@@H]2C(=O)N(C)[C@H](C)C(=O)N1C,11
CC(C)C[C@@H]1NC(=O)[C@@H]2CCCN2C(=O)[C@@H](CC(C)C)N(C)C(=O)[C@H](CC(C)C)N(C)C(=O)[C@H](C)NC(=O)[C@@H]2CCCN2C(=O)[C@H](Cc2ccccc2)NC1=O,0.81
CCCN1CC(=O)N[C@@H](CC(C)C)C(=O)N[C@@H](CC(C)C)C(=O)N2CCC[C@@H]2C(=O)N(C)[C@@H](CC(C)C)C(=O)N[C@@H](Cc2ccccc2)C1=O,6.9
CC(C)C[C@H]1C(=O)N[C@@H](Cc2ccccc2)CC(=O)N2CCC[C@H]2C(=O)N(C)[C@@H](CC(C)C)C(=O)N[C@@H](Cc2ccccc2)C(=O)N2CCC[C@H]2C(=O)N(C)[C@@H](C)C(=O)N1C,5.9
CC(C)C[C@@H]1NC(=O)[C@H]2CCCN2C(=O)CN(Cc2ccccc2)C(=O)[C@@H](CC(C)C)N(C)C(=O)[C@H](C)N(C)C(=O)[C@H]2CCCN2C(=O)[C@H](Cc2ccccc2)NC1=O,0.68
CC(C)C[C@@H]1NC(=O)C[C@H](Cc2ccccc2)NC(=O)[C@H](Cc2ccccc2)NC(=O)[C@@H](CC(C)C)NC(=O)[C@H]2CCCN2C(=O)[C@@H](CC(C)C)N(C)C1=O,3.3
CC(C)C[C@@H]1NC(=O)[C@H](C)N(C)C(=O)[C@H](Cc2ccccc2)NC(=O)[C@H](CC(C)C)N(C)C(=O)[C@@H]2CCCN2C(=O)[C@@H](CC(C)C)NC1=O,10
CC(C)C[C@@H]1NC(=O)[C@@H](C)N(C)C(=O)[C@H](Cc2ccccc2)NC(=O)CN(Cc2ccccc2)C(=O)[C@@H]2CCCN2C(=O)[C@H](CC(C)C)NC1=O,1.7
CC(C)C[C@@H]1C(=O)N[C@@H](Cc2ccccc2)CC(=O)N2CCC[C@H]2C(=O)N(C)[C@@H](CC(C)C)C(=O)N[C@@H](Cc2ccccc2)C(=O)N2CCC[C@@H]2C(=O)N(C)[C@H](C)C(=O)N1C,4.9

A selection of 4 entries from above:

SMILES	PAMPA (10^-6 cm/s)
CC(C)C[C@@H]1NC(=O)C[C@H](Cc2ccccc2)NC(=O)[C@H](Cc2ccccc2)NC(=O)[C@@H](CC(C)C)NC(=O)[C@H]2CCCN2C(=O)[C@@H](CC(C)C)N(C)C1=O	3.3
CC(C)C[C@@H]1NC(=O)[C@@H](CC(C)C)N(C)C(=O)[C@@H](C)NC(=O)[C@@H]2CCCN2C(=O)[C@H](Cc2ccccc2)NC(=O)[C@H](CC(C)C)N(C)C(=O)[C@@H]2CCCN2C1=O	2.3
CC(C)C[C@@H]1NC(=O)[C@@H](C)N(C)C(=O)[C@H](Cc2ccccc2)NC(=O)CN(Cc2ccccc2)C(=O)[C@H]2CCCN2C(=O)[C@@H](CC(C)C)NC1=O	2
CC(C)C[C@H]1NC(=O)[C@@H](C)N(C)C(=O)[C@H]2CCCN2C(=O)[C@H](Cc2ccccc2)NC(=O)[C@H](CC(C)C)N(C)C(=O)[C@@H]2CCCN2C(=O)[C@H](CC(C)C)N(C)C1=O	7.2

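Conditions beyond the assay type are not listed; see the original paper. The list need not hold all peptides of the study. Peptides that the database sets to -10, its floor, are left out.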